In patent publication US20230398130A1, “METHODS AND COMPOSITIONS FOR DIFFERENTIATING STEM CELLS” (Massachusetts Institute of Technology, priority 2020, published 2023):

Test system: ISC-enriched organoids
Assay: Primary screen, 384-well 2.5-D organoid differentiation (ENR+CD, 6 days, Target Selective Inhibitor Library, vs whole-plate median): ATP (CellTiter-Glo 3D, CTG)

CNC(=O)c1cc(Oc2ccc(NC(=O)Nc3ccc(Cl)c(C(F)(F)F)c3)cc2)ccn1 [Sorafenib]
Z.CTG (standard z score): 0.077
